Laboratory results as given in patent US6602856B1, “Antagonists of alpha-melanocyte stimulating hormone and methods based thereon” (priority 1995, dated 2003).
Like-named read-outs stand apart in the source and are kept apart here.

Assays:
[1] = target: T1, endogenous amphibian MSH-receptors (Xenopus laevis, UniProt A0A1L8GF34); assay type: cell-based
T1 sequence (A0A1L8GF34 1-317): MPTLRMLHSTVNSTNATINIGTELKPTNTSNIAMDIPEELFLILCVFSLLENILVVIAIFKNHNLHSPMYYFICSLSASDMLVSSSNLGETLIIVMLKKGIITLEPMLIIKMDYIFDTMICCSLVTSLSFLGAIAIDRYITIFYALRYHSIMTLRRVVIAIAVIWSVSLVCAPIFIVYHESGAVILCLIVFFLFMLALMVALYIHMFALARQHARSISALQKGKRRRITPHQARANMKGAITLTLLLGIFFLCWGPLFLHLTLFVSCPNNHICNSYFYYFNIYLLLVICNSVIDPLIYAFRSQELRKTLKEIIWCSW
Description: Melanin dispersion responses were quantitated by measuring transmittance through a monolayer of cultured melanophores pretreated with 1 nM melatonin (Potenza, et. al., 1992, Anal Biochem. 206, 315-22) and curve fit with a logistic equation (De Lean et al., 1978, Am J. Physiol. 235, E97-E102).
Broken lines indicate 99% confidence level.
Each point represents the mean and SSD of four independent transmittance measurements. Ti=initial transmittance (2 min.). Tf=final transmittance (60 min.).
For dose-response studies all tripeptides were synthesized on Rink Amide MBHA resin 0.25 mmol scale using standard Fmoc chemistry. After synthesis, peptides were purified suing HPLC and reverse-phase chromatography on a C18 column. The dose-response curves were obtained by microtiter plate assays (Potenza et al, 1992, Pigment Cell Res. 5, 372-378). Melanophore cells (18,000/well) were plated on 96-well tissue culture plates (Falcon).

[2] = system: Xenopus laevis skin pigmentation; settings: 1 mM in H2O applied to skin surface
[3] = system: Xenopus laevis skin pigmentation; settings: 40 μmol/kg injected; for skin pigmentation lightening, systemic injection: dark-adapted frogs

## CC(C)C[C@H](NC(=O)[C@H](CCCNC(=N)N)NC(=O)[C@H](N)Cc1c[nH]c2ccccc12)C(N)=O [A1, D-Trp-Arg-Leu-NH2]
[1]
  slope of the Schild regression: 1.6±0.03
[2]; listed as DWRL
  skin pigmentation lightening, topical: local lightening of pigmentation to “albino like” levels
[2]; listed as dWRL
  skin pigmentation lightening, topical: lightened albino-like skin tone
[3]
  time to lightening after injection: ≤ 20 min
[3]; listed as DWRL
  skin pigmentation lightening, systemic injection: lightening of skin pigmentation on the entire body surface
[3]; listed as dWRL
  skin pigmentation lightening, systemic injection: complete lightening
